Results published in publication PMC10573254, “Development of Novel Class of Phenylpyrazolo[3,4-d]pyrimidine-Based Analogs with Potent Anticancer Activity and Multitarget Enzyme Inhibition Supported by Docking Studies” (International Journal of Molecular Sciences, 2023).

The chains behind the UniProt entries cited, without tags or fusion partners. Residues count along the entry.
UniProt P35968, 20-1356 limits assumed: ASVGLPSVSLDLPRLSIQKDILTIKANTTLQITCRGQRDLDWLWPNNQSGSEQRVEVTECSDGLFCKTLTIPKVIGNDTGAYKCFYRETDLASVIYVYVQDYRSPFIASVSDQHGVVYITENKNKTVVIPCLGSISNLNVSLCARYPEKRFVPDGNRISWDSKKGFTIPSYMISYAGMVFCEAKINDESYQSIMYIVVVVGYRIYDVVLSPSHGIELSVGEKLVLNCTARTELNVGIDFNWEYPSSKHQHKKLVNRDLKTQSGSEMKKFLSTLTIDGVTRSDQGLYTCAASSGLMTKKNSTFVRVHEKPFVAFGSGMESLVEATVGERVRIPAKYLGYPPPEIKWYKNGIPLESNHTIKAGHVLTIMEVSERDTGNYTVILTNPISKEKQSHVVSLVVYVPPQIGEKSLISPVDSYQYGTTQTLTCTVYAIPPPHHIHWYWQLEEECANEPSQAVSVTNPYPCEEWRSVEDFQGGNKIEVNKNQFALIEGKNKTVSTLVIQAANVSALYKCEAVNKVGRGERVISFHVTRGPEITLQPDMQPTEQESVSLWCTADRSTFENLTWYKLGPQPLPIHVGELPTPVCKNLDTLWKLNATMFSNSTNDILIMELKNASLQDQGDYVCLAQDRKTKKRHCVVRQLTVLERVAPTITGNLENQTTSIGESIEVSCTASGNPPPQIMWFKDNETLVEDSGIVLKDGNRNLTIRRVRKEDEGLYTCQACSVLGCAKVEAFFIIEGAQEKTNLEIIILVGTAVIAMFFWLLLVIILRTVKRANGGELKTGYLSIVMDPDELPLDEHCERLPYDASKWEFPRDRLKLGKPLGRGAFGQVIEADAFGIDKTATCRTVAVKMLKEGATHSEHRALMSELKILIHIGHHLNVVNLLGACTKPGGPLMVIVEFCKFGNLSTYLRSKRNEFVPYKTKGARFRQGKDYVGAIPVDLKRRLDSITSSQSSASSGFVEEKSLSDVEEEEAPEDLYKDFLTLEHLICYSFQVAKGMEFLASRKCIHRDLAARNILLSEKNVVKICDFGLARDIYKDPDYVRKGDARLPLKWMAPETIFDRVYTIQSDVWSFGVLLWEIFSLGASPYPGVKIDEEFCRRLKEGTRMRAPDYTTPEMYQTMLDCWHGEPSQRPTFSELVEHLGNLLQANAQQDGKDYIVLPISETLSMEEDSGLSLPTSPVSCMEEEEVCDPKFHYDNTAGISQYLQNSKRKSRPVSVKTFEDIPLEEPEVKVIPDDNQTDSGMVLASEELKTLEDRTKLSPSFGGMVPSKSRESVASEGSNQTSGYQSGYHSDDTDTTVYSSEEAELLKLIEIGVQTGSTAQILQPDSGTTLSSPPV
UniProt Q02880, 2-1626 limits assumed: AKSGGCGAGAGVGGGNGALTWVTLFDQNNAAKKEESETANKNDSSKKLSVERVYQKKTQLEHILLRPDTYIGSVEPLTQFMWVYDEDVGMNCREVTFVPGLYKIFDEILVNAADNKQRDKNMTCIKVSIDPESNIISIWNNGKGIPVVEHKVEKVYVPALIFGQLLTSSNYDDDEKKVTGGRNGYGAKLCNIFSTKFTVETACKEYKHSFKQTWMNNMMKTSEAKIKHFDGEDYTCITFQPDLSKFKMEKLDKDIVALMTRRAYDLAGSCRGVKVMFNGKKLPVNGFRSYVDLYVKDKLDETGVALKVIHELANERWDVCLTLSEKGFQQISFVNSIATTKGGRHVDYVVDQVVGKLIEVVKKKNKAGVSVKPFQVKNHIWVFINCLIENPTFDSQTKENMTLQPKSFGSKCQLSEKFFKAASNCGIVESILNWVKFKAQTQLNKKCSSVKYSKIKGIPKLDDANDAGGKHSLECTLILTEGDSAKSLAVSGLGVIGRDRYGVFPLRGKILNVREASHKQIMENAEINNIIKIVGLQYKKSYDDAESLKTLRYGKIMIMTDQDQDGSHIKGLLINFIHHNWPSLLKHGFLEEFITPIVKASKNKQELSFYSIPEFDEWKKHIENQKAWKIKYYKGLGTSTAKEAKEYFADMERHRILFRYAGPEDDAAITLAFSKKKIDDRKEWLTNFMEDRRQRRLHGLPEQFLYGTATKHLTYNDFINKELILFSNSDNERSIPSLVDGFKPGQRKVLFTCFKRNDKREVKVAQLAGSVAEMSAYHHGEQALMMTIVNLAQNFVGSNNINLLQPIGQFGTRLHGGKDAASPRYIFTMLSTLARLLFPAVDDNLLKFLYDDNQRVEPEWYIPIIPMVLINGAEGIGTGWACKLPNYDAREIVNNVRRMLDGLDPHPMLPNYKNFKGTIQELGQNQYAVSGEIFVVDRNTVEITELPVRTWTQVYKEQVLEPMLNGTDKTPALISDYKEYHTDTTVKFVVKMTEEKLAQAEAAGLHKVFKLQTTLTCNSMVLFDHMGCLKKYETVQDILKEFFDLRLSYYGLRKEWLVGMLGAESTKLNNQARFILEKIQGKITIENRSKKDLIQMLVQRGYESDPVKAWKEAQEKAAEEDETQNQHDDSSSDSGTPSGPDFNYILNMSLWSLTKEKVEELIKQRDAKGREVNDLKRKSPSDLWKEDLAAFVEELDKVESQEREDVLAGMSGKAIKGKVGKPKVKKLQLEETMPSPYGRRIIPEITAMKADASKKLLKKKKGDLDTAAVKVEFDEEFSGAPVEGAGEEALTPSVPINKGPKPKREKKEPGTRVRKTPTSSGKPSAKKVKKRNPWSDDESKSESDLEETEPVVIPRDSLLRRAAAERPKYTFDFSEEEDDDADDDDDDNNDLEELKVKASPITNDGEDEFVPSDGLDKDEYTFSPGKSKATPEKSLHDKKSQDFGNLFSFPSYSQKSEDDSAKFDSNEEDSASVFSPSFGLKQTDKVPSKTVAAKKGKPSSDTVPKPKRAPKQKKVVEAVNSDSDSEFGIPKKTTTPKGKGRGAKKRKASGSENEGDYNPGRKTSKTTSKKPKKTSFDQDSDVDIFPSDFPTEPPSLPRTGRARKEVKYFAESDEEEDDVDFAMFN

Columns and labels:
VEGFR-2 = VEGFR-2 (Homo sapiens, UniProt P35968); experiment: In vitro VEGFR2 enzyme inhibitory assay; assay type: biochemical; conditions: for VEGFR2 %inh at conc 0.01: conc 0.01, unit not given; for VEGFR2 %inh at conc 0.1: conc 0.1, unit not given; for VEGFR2 %inh at conc 1: conc 1, unit not given; for VEGFR2 %inh at conc 10: conc 10, unit not given; for VEGFR2 IC50 (lab report): supplement lab report
Topo-II = Topo-II (Homo sapiens, UniProt Q02880); experiment: In vitro Topo II inhibitory assay; assay type: biochemical; conditions: for TOPO IiB %inh at conc 0.1: conc 0.1, unit not given; for TOPO IiB %inh at conc 1: conc 1, unit not given; for TOPO IiB %inh at conc 10: conc 10, unit not given; for TOPO IiB %inh at conc 100: conc 100, unit not given; for TOP2a IC50 (lab report): supplement lab report, Human DNA Topoisomerase 2B Kit

Compound | VEGFR2 %inh at conc 0.01 (VEGFR-2) [%] | VEGFR2 %inh at conc 0.1 (VEGFR-2) [%] | VEGFR2 %inh at conc 1 (VEGFR-2) [%] | VEGFR2 %inh at conc 10 (VEGFR-2) [%] | VEGFR2 IC50 (lab report) (VEGFR-2) [µg/mL] | TOPO IiB %inh at conc 0.1 (Topo-II) [%] | TOPO IiB %inh at conc 1 (Topo-II) [%] | TOPO IiB %inh at conc 10 (Topo-II) [%] | TOPO IiB %inh at conc 100 (Topo-II) [%] | TOP2a IC50 (lab report) (Topo-II) [µg/mL]
Cc1nc(NN=Cc2ccccc2)c2cnn(-c3ccccc3)c2n1 [Compound 5a, 4-(2-Benzylidenehydrazinyl)-6-methyl-1-phenyl-1H-pyrazolo[3,4-d]pyrimidine] | 28 | 43 | 78 | 89 | 0.26 | 16 | 34 | 57 | 71 | 6.21
COc1ccc(C=NNc2nc(C)nc3c2cnn3-c2ccccc2)cc1 [Compound 5d] | 23 | 41 | 71 | 87 | 0.459 | 4.5 | 8.4 | 24 | 59 | 89.5
COc1ccccc1C=NNc1nc(C)nc2c1cnn2-c1ccccc1 [Compound 5e, 4-(2-(2-Methoxybenzylidene)hydrazineyl)-6-methyl-1-phenyl-1H-pyrazolo[3,4-d]pyrimidine] | 31 | 55 | 76 | 91 | 0.119 | 11 | 29 | 62 | 77 | 5.38
